The experiment deals with A549. The experiment is described as follows: cells. It counts as functional, cell-based. Conditions: Homo sapiens, A549, 48 h.

Data on one compound can be found in ChEMBL document CHEMBL5154779, “Exploration of novel phthalazinone derivatives as potential efflux transporter inhibitors for reversing multidrug resistance and improving the oral absorption of paclitaxel” (Eur J Med Chem, 2022).

As usually defined, the IC50 is the concentration at which inhibition is half-maximal. A higher IC50 goes with a need for much substance. `O=C(Nc1ccc(CCN2CCOCC2)cc1)c1nn(-c2ccc(Cl)cc2)c(=O)c2ccccc12` gave an IC50 of 46.3 µM.
